We go through one molecule from patent US11452709B2, “Compositions and methods for preventing and treating radiation-induced bystander effects caused by radiation or radiotherapy” (The Regents of the University of Colorado, priority 2017, dated 2022).

Assay [1] deals with T1, C. elegans CPR-4 protease (Caenorhabditis elegans, UniProt P43508).
T1 construct: a cpr-4 cDNA fragment encoding residues 16-336 was PCR amplified from the full-length cpr-4 cDNA clone; GST (N, cleaved yes); made in house; host or cells: Escherichia coli BL21(DE3)
T1 sequence (P43508 81-335): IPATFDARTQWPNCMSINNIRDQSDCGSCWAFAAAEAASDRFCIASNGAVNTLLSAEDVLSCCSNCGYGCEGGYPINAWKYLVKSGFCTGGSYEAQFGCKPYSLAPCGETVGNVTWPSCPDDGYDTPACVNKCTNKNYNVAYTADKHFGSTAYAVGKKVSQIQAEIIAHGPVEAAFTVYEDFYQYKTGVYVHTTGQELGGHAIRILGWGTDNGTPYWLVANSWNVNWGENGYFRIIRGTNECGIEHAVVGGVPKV
Nature of the assay: CPR-4 protease activity inhibition in vitro (z-Arg-Arg-AMC substrate). It is filed as biochemical. To be noted: 1 mM of each compound; read-out: Inhibition rate(%) of the C. elegans CPR-4 protease activity.

The target of a further assay is T2, CTSB protease (Homo sapiens, UniProt P07858).
T2 construct: purchased Sino Biological Inc. 10483-H08H-10
Nature of the assay: CTSB protease activity inhibition in vitro (z-Arg-Arg-AMC substrate). The class given is biochemical.

pIC50: −log10 of the molar value.

What is called inhibition is the relative decrease from the control value, in per cent. The term pIC50 denotes −log10 of the IC50, conventionally taken in molar units.

With `CC(C)C[C@H](NC(=O)[C@@H](N)CCCNC(=N)N)C(=O)N[C@@H](C)C(=O)O` [NH2-Arg-Leu-Ala-COOH], the inhibition at 1000 µM is 85% in assay [1] and over 86% at CTSB protease (1 mM of each compound, read-out: Inhibition rate (%) of the CTSB protease activity). Besides, the “IC50 in inhibiting the CTSB protease activity” value on CTSB protease is listed as “significantly higher than other compounds”. The “Inhibition rate (%) of the CTSB protease activity” value on CTSB protease (1 mM of each compound) is on record as 86.12%. Also, the pIC50 on CTSB protease (read-out: IC50 in inhibiting the CTSB protease activity) was 4.91.
